In patent publication US4076821A (priority 1976, dated 1978):
Some compounds may have been tested in ways that are not shown here.

Key:
Acute toxicity (LD50) = details: female mouse, per os; Litchfield-Wilcoxon method
[1] = Anti-apomorphine effect (ED50); type: in vivo, rat; details: p.o.; groups of 5-7 female rats

Row | Structure (SMILES) | LD50 (Acute toxicity (LD50)) [mg/kg] | ED50, anti-apomorphine effect [1] [mg/kg]
1 | O=c1[nH]c2cc(Cl)ccc2n1C1CCN(C2CCC(c3ccc(F)cc3)(c3ccc(F)cc3)CC2)CC1 | > 1000 | 0.18
2 | O=c1[nH]c2cc(Cl)ccc2n1C1CCN(C2C=CC(c3ccc(F)cc3)(c3ccc(F)cc3)CC2)CC1 (stereo not drawn) | ≥ 1000 | 0.51
3 | O=c1[nH]c2cc(F)ccc2n1C1CCN(C2C=CC(c3ccc(F)cc3)(c3ccc(F)cc3)CC2)CC1 (stereo not drawn) |  | 0.17
4 | O=c1[nH]c2cc(F)ccc2n1C1CCN(C2CCC(c3ccc(F)cc3)(c3ccc(F)cc3)CC2)CC1 |  | 0.14
